Earlier results as cited in patent US20190336490A1, “COMPOSITIONS AND METHODS FOR INCREASING REMYELINATION” (Frequency Therapeutics, Inc., priority 2018, published 2019).
This is a selection: effects in other tests are not listed, and their absence says nothing.

Protein sequences, listed by entry. Tags and fused reporters are not part of them.
UniProt P11229, whole entry: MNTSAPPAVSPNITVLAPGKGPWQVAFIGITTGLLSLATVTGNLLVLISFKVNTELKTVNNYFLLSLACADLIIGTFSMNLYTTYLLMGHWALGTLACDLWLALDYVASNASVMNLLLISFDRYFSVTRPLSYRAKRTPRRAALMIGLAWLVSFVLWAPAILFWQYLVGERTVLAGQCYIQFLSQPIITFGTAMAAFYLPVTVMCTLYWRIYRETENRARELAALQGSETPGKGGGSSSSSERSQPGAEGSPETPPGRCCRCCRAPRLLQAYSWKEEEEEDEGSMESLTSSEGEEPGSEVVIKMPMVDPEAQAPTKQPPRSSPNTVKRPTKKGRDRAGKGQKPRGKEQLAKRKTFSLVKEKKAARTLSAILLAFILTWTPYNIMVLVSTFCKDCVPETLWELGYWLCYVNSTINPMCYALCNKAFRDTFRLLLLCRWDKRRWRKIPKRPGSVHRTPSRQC

Molecular target: muscarinic M1 receptor (Homo sapiens, UniProt P11229)
Conditions: cited from earlier work

SMILES: CC(C)N1CCC(N(C(=O)Cc2ccccc2)c2ccc(Cl)cc2)CC1
- In vitro M1 (Conc): <10 µM
